## Apparent affinities of Ab-14 variants for a coronavirus HR2 peptide

Values reported by Engelhart et al. 2022, doi:10.1038/s41597-022-01779-4 (FLAb copy).

Target: peptide PDVDLGDISGINAS, taken from heptad repeat 2 (HR2) of SARS-CoV-2 spike.

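The starting antibody came from a phage panning campaign against this peptide. Variants in AAYL50 differ from the parent at up to three CDR positions; double and triple changes were sampled at random. The assay is AlphaSeq: two haploid yeast populations carry antibody and antigen on their surface. After mating in shaken culture at 30 °C for 16 h, diploids were selected and their barcode pairs sequenced. The ratio of observed to expected reads was calibrated, replicate by replicate, on BCL2-family standards whose Kd was known from biolayer interferometry. Each pool was mated in three replicate cultures.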

Ab-14 is the parent antibody, in scFv form: VH, then a 15-residue (Gly4Ser)3 linker, then VL. The heavy chain is unchanged in all variants.
VH: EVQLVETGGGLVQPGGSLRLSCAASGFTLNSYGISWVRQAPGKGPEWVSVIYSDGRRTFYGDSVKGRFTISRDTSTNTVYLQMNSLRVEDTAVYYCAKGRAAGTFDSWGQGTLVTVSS
VL: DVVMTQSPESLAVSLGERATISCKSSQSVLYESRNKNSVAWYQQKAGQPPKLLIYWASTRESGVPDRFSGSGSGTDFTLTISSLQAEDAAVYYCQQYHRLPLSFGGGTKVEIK

Substitutions are numbered in sequence along the VL above, starting at 1 (not Kabat). The read-out is the apparent dissociation constant on a log10 scale (nM): the lower, the stronger. An entry "n.d." has no value in the source: the pair was not observed among the diploids in that replicate. This suggests poor binding but is not conclusive.

changes,"replicates, log10 nM",signal with controls
Q27L/Y97T/R99L,1.00 1.22 1.19,1 of 9 (3.28)
Q27R/S58R/Q95F,2.90 1.91 1.80,1 of 9 (3.43)
K24V/S33M/R99W,n.d. n.d. n.d.,1 of 9 (2.03)
N37L/A57K/S103E,2.80 n.d. n.d.,0 of 9
L30S/N37K/H98W,1.51 1.58 1.82,3 of 9 (4.66)
K36I/A40W/R99T,3.75 3.10 n.d.,1 of 9 (4.08)
L30H/A40C,3.37 3.48 3.38,0 of 9
L30I/S58F,2.75 2.66 2.72,5 of 9 (4.80)
S38T,3.67 2.80 3.06,0 of 9
Y31H/K36E/H98C,1.12 1.03 1.06,3 of 9 (3.36)
W56K/E61A,2.10 2.07 2.40,5 of 9 (4.22)
R60M/Y97W/H98F,4.74 n.d. n.d.,2 of 9 (4.62)
L30H/R60L/Q95W,n.d. 4.53 4.37,2 of 9 (3.82)
S33G/W56Q/Q96W,0.41 0.71 0.63,6 of 9 (4.28)
A40N/A57S/P101V,3.62 n.d. 3.84,1 of 9 (3.98)
S26N/S28D/V39W,5.22 3.99 4.68,1 of 9 (4.35)
S26G/Q27H/L100K,n.d. n.d. 3.62,2 of 9 (4.32)
S25D/S33G,0.41 0.69 0.57,2 of 9 (4.81)
S28L/Q96F,2.64 3.03 2.60,0 of 9
A40W/S62G,n.d. n.d. n.d.,3 of 9 (3.82)
L30V/E32T/K36H,0.97 1.12 1.18,0 of 9
Y97R/P101F,3.05 4.68 n.d.,2 of 9 (3.36)
S33I/N35T/K36D,n.d. n.d. n.d.,2 of 9 (3.04)
T59W/E61A/S62C,1.52 1.57 2.20,0 of 9
V29W/W56T/T59E,0.39 0.61 0.52,1 of 9 (3.99)
K24N/N35L/A40K,4.50 n.d. n.d.,2 of 9 (3.25)
K24D/E32F/R34M,n.d. n.d. 6.26,2 of 9 (4.56)
S26E/E61W/Q96R,4.25 3.40 3.73,1 of 9 (3.44)
A40L/Y97F/R99M,n.d. n.d. n.d.,0 of 9
R34N/T59D/L102D,n.d. n.d. n.d.,0 of 9
S62G/Q95V/Q96D,n.d. 4.47 3.92,2 of 9 (4.18)
N35S/S58V,1.79 1.71 2.24,3 of 9 (3.91)
S26K/V29Q/K36I,1.14 1.45 0.99,0 of 9
S28C/A57E/S58C,n.d. n.d. n.d.,1 of 9 (4.20)
E32P/K36S/S58F,3.90 2.60 n.d.,1 of 9 (2.87)
S26N/V39I/L100D,0.11 0.35 -0.12,0 of 9
L30N/R60E/Q96F,n.d. n.d. n.d.,0 of 9
K24L/Q27K/L102Q,2.54 2.18 3.23,4 of 9 (4.20)
E32C/K36I/Q96F,5.09 3.51 4.86,1 of 9 (4.26)
E32Y/N37D,1.80 1.72 2.37,0 of 9
R34K/A57S/H98L,2.35 2.20 2.60,5 of 9 (4.16)
R34S/W56Y/H98Y,n.d. n.d. n.d.,2 of 9 (4.24)
S38V/S62L/Q95T,n.d. n.d. n.d.,1 of 9 (3.48)

Picked from the list: the 6 lowest averages where every replicate gave a value.

changes,"replicates, log10 nM",signal with controls
S26N/V39I/L100D,0.11 0.35 -0.12,0 of 9
V29W/W56T/T59E,0.39 0.61 0.52,1 of 9 (3.99)
S25D/S33G,0.41 0.69 0.57,2 of 9 (4.81)
S33G/W56Q/Q96W,0.41 0.71 0.63,6 of 9 (4.28)
Y31H/K36E/H98C,1.12 1.03 1.06,3 of 9 (3.36)
L30V/E32T/K36H,0.97 1.12 1.18,0 of 9

Background: pairings of library AAYL50 with three empty control strains gave a value in 18% of cases (median 4.19, 5th percentile 2.99). Values in that range, when seen in few replicates, are hard to tell from nonspecific mating. The control count says in how many pairings with the empty strains this scFv gave a signal, with their mean in brackets.